Antibody variant affinities, Ab-91 heavy chain, assay 2

Source: Engelhart et al. 2022 (doi:10.1038/s41597-022-01779-4), MIT Lincoln Laboratory and A-Alpha Bio; data file from the FLAb repository.

Target: peptide PDVDLGDISGINAS, taken from heptad repeat 2 (HR2) of SARS-CoV-2 spike.

Parent scFv Ab-91: VL joined to VH by a (GGGGS)3 linker. Changes lie in the heavy chain CDRs alone.
VL: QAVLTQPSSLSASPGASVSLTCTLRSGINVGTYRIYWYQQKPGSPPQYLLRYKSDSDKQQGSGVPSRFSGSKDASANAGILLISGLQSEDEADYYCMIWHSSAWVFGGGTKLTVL
VH: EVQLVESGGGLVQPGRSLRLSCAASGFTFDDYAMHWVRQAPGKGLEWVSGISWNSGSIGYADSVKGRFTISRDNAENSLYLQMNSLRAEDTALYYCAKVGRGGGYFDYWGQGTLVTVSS

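The starting antibody came from a phage panning campaign against this peptide. In library AAYL51, one, two or three CDR residues were substituted; doubles and triples were drawn at random. The scFvs were displayed on barcoded MATa yeast, the peptide on MATalpha yeast. After mating in shaken culture at 30 °C for 16 h, diploids were selected and their barcode pairs sequenced. A regression on co-assayed BCL2-family reference pairs converts the normalised counts of each replicate to an apparent Kd. Mating was done three times.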

Substitutions are numbered in sequence along the VH above, starting at 1 (not Kabat).
All variants listed here change A61 of the VH, counted from its first residue.
Numbers give log10(Kd / nM), so 0 is 1 nM and 3 is 1 µM. Smaller is tighter.
The mean shown is taken over the replicates in which the pair was detected.
An entry "no signal" has no value in the source: the pair was not observed among the diploids in any replicate. This suggests poor binding but is not conclusive.
Parent in this assay: reference entry 1.86, copy in this library 0.88.
Empty control strains, which show no peptide, gave a signal in 21% of pairings with library AAYL51; the median was 4.54 and 95% of these signals were weaker than 3.26. No background was subtracted.

- S55E+S57D+A61V: no signal (0 of 3 replicates)
- H35Q+N54I+A61V: 5.80 (1 of 3 replicates)
- S55T+A61C+R101E: no signal (0 of 3 replicates)
- S52H+A61T: 3.11 (3 of 3 replicates)
- D30Y+N54H+A61M: no signal (0 of 3 replicates)
- A61C+V64N+G103L: 3.84 (2 of 3 replicates)
- W53Q+A61Q+V64Q: 4.93 (1 of 3 replicates)
- G56Q+A61H: 1.46 (3 of 3 replicates)
- A61R: 2.89 (3 of 3 replicates)
- M34Y+A61V+S63D: 4.37 (1 of 3 replicates)
- A61V+K65I+Y105I: 5.04 (2 of 3 replicates)
- I58P+A61P+D107F: no signal (0 of 3 replicates)
- A33Y+A61E+S63K: 4.71 (3 of 3 replicates)
- S52L+A61I: 4.55 (2 of 3 replicates)
- A33C+S57E+A61W: no signal (0 of 3 replicates)
- F29V+A61R+R101V: no signal (0 of 3 replicates)
- A61Y+G104Y+Y108V: no signal (0 of 3 replicates)
- S55P+A61P+G103S: no signal (0 of 3 replicates)
- S52N+S57N+A61F: 4.37 (1 of 3 replicates)
- G26E+I58W+A61V: 3.26 (3 of 3 replicates)
- A33G+W53P+A61I: 0.31 (3 of 3 replicates)
- M34T+S55Q+A61S: 4.68 (2 of 3 replicates)
- Y32F+G56P+A61M: no signal (0 of 3 replicates)
- G59N+A61P+D62K: 4.69 (1 of 3 replicates)
- M34E+I51E+A61K: 5.10 (2 of 3 replicates)
- A61I+V64C+V99K: 3.94 (1 of 3 replicates)
- D31H+A61D: no signal (0 of 3 replicates)
- S52H+A61P+F106W: 5.50 (3 of 3 replicates)
- F29C+A33Q+A61K: no signal (0 of 3 replicates)
- Y32G+G50K+A61F: no signal (0 of 3 replicates)
- D31N+S57M+A61W: 4.76 (1 of 3 replicates)
- W53C+I58L+A61S: 3.48 (3 of 3 replicates)
- D30R+A61C+F106S: no signal (0 of 3 replicates)
- H35I+A61E+R101G: no signal (0 of 3 replicates)
- N54V+A61W+F106C: 5.65 (1 of 3 replicates)
- A61N+S63I+G102T: 4.90 (1 of 3 replicates)
- G26Q+F27L+A61W: 4.37 (1 of 3 replicates)
- F29E+H35L+A61S: no signal (0 of 3 replicates)
- A61Q+V64D+Y108A: 4.90 (3 of 3 replicates)
- A61W: 4.55 (3 of 3 replicates)
- Y60G+A61I+S63W: no signal (0 of 3 replicates)
- A61D+S63W+K65F: 5.57 (2 of 3 replicates)
- H35P+A61Q+K65V: no signal (0 of 3 replicates)
- F29H+A61V+V99G: no signal (0 of 3 replicates)
- H35S+A61G+V99N: no signal (0 of 3 replicates)
- G50D+I58D+A61T: no signal (0 of 3 replicates)
- T28Y+Y32D+A61N: 4.59 (1 of 3 replicates)
- F27Q+S52A+A61D: 4.06 (1 of 3 replicates)
- H35T+A61W+S63Q: 3.35 (1 of 3 replicates)
- A61Q: 1.81 (3 of 3 replicates)
- A33M+A61M+V99P: 5.41 (3 of 3 replicates)
- W53Q+A61R+D62Y: 3.89 (2 of 3 replicates)

The closing 6 entries, repeated:

changes,mean log10 Kd (nM),detected
T28Y+Y32D+A61N,4.59,1 of 3
F27Q+S52A+A61D,4.06,1 of 3
H35T+A61W+S63Q,3.35,1 of 3
A61Q,1.81,3 of 3
A33M+A61M+V99P,5.41,3 of 3
W53Q+A61R+D62Y,3.89,2 of 3